Values quoted from earlier work in patent publication US8106007B2, “Conjugates of a polypeptide and a pentasaccharide” (N.V. Organon, priority 2005, dated 2012).

Tests used:
[1] = in man; cited from earlier work
[2] = species not given; cited from earlier work

## insulin
[1]
  half-life: about 12 minutes
[2]
  t ½: 12 min
